The record followed here is patent US9540385B2, “Pyrrolopyrimidine compounds as kinase inhibitors” (Pharmacyclics LLC, priority 2012, dated 2017).

Chains of the proteins cited; added tags and fusions are not shown.
UniProt Q06187, whole entry: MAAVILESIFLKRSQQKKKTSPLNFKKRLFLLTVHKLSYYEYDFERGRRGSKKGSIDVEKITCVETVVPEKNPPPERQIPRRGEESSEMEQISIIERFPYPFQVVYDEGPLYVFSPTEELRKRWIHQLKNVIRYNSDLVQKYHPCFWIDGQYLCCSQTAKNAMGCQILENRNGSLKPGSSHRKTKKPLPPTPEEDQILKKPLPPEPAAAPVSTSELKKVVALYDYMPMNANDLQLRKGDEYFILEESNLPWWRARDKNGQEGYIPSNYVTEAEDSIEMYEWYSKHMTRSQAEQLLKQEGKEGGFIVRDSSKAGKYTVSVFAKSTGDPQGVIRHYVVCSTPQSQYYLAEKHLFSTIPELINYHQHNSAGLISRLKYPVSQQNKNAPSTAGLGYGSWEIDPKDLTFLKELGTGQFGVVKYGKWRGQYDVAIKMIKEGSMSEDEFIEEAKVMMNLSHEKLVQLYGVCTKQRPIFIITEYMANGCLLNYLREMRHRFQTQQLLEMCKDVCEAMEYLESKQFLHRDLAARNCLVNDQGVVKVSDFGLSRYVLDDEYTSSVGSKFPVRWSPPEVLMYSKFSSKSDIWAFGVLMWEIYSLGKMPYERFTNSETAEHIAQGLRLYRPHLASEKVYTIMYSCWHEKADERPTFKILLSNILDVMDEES

As usually defined, the pIC50 is the IC50 on a negative log10 scale, so that one unit is a factor of ten.

This assay concerns the target BTK (Homo sapiens, UniProt Q06187). Put plainly: Btk in vitro inhibitory activity / inhibition of a panel of kinases (TR-FRET, mobility shift or radiometric filter binding). The format is biochemical. The note with it: read-out: BTK IC50; kinase assay by one of methods A, B or C. How it is done: Btk kinase activity is determined using a time-resolved fluorescence resonance energy transfer (TR-FRET) methodology. Measurements are performed in a reaction volume of 50 μL using 96-well assay plates. Kinase enzyme, inhibitor, ATP (at the Km for the kinase), and 1 μM peptide substrate (Biotin-AVLESEEELYSSARQ-NH2) are incubated in a reaction buffer composed of 20 mM Tris, 50 mM NaCl, MgCl2 (5-25 mM depending on the kinase), MnCl2 (0-10 mM), 1 mM DTT, 0.1 mM EDTA, 0.01% bovine serum albumin, 0.005% Tween-20, and 10% DMSO at pH 7.4 for one hour. The reaction is quenched by the addition of 1.2 equivalents of EDTA (relative to divalent cation) in 25 μL of 1× Lance buffer (Perkin-Elmer). Streptavidin-APC (Perkin-Elmer) and Eu-labeled p-Tyr100 antibody (Perkin-Elmer) in 1× Lance buffer are added in a 25 μL volume to give final concentrations of 100 nM and 2.5 nM, respectively, and the mixture is allowed to incubate for one hour. The TR-FRET signal is measured on a multimode plate reader with an excitation wavelength (λEx) of 330 nm and detection wavelengths (λEm) of 615 and 665 nm. Activity is determined by the ratio of the fluorescence at 665 nm to that at 615 nm. For each compound, enzyme activity is measured at various concentrations of compound. Negative control reactions are performed in the absence of inhibitor in replicates of six, and two no-enzyme controls are used to determine baseline fluorescence levels. Inhibition constants, Ki(app), ware obtained using the program BatchKi (Kuzmic et al. (2000), Anal. Biochem. 286:45-50). IC50s are obtained according to the equation: IC50={Ki(app)/(1+[ATP]/Km^ATP)}+[E]total/2;
For all kinases, [ATP]=Km^ATP, [Btk]total=0.5 nM and [Lck]total=6 nM.
Kinase activity is measured in vitro using electrophoretic mobility shift assay. The kinase reactions are assembled in a total volume of 25 μL in 384 well plates. The reactions comprise: BTK enzyme (1 nM, N-terminal His6-tagged, recombinant, full-length, human BTK purified from baculovirus Sf21 insect cell system), inhibitor, ATP ([…] the apparent Km for the kinase), fluorescently labeled peptide substrate (1 μM, FAM-GEEPLYWSFPAKKK-NH2) in a reaction buffer composed of 100 mM HEPES, pH7.5, 5 mM MgCl2 1 mM DTT, 0.1% bovine serum albumin, 0.01% Triton X-100, and 1% DMSO. The reaction is incubated for one hour and is quenched by the addition of 45 μL of termination buffer (100 mM HEPES, pH7.5, 0.01% Triton X-100, 30 mM EDTA). The terminated reactions are analyzed using 12 channel LabChip® 3000 microfluidic detection instrument (Caliper Life Sciences). The enzymatic phosphorylation of the peptide results in a change in net charge, enabling electrophoretic separation of product from substrate peptide. As substrate and product peptides are separated, two peaks of fluorescence are observed. Change in the relative fluorescence intensity of the substrate and product peaks is the parameter measured, reflecting enzyme activity. In the presence of an inhibitor, the ratio between product and substrate is altered: the signal of the product decreases, while the signal of the substrate increases.
Activity in each sample is determined as the product to sum ratio (PSR):P/(S+P), where P is the peak height of the product peptide and S is the peak height of the substrate peptide. For each compound, enzyme activity is measured at various concentrations (12 concentrations of compound spaced by 3× dilution intervals). […] Percent inhibition (Pinh) is determined using following equation: […]

pIC50: −log10 of the molar value. Some results are limits rather than exact numbers.

Consider `CN(C/C=C/C(=O)N1CC[C@@H](n2cc(-c3ccc(C(=O)Nc4cc(C(F)(F)F)ccn4)cc3)c3c(N)ncnc32)C1)C1CC1`, for which the pIC50 was more than 7.00.
To `Cc1ccnc(NC(=O)c2ccc(-c3c(C)n([C@@H]4CCN(C(=O)/C=C/CN(C)C5CC5)C4)c4ncnc(N)c34)cc2)c1` belongs more than 7.00.
Take `Cc1c(-c2ccc(C(=O)Nc3cc(C(F)(F)F)ccn3)cc2)c2c(N)ncnc2n1[C@@H]1CCN(C(=O)/C=C/CN(C)C2CC2)C1`: the pIC50 was more than 7.00.
With `CCCc1ccnc(NC(=O)c2ccc(-c3c(C)n([C@@H]4CCN(C(=O)/C=C/CN(C)C5CC5)C4)c4ncnc(N)c34)cc2)c1`, the pIC50 was more than 7.00.
The same measure for `Cc1c(-c2ccc(C(=O)Nc3cc(C#N)ccn3)cc2)c2c(N)ncnc2n1[C@@H]1CCN(C(=O)/C=C/CN(C)C2CC2)C1`: more than 7.00.
